The source of these data is patent US10100070B2, “Borate-based base generator, and base-reactive composition comprising such base generator” (FUJIFILM Wako Pure Chemical Corporation, priority 2014, dated 2018).

The nature of this data set: Solubility tests to organic solvents and a base-reactive compound. The note with it: 0.1 g compound, visual.

“1,3-dimethyl-2-(N,N′,N″,N″-tetramethylguanidino)-4,5-dihydro-3H-imidazolium triphenyl(n-butyl)borate [Comp. Ex. 10]”: for the setting “neopentylglycol diglycidyl ether added gradually at room temperature”, the “Solubility in SR-NPG” value is reported as “−− (dissolved only into not less than 10 mL thereof)”. Also, the “Solubility in PGMEA” value (propyleneglycol monomethylether acetate added gradually at room temperature) is “−− (dissolved only into not less than 10 mL thereof)”.
